The results in this text go back to ChEMBL document CHEMBL1138582, “5-Aminopyrimidin-2-ylnitriles as cathepsin K inhibitors” (Bioorg Med Chem Lett, 2009).

The assay addresses Cathepsin B (Homo sapiens, UniProt P07858). Description: Inhibition of cathepsin B.

A value given as a limit tells only on which side of the number the result lay.

What is called IC50 is the concentration that inhibits the measured activity by half. Lower therefore signals greater potency.

Regarding `CC(C)CNc1nc(C#N)nc(N2CCOCC2)c1N`, the IC50 is above 10 µM.
